Apparent affinities of Ab-14 variants for a coronavirus HR2 peptide

The measurements come from Li et al. 2023 (doi:10.1038/s41467-023-39022-2) through the FLAb antibody collection.

Target: peptide PDVDLGDISGINAS, taken from heptad repeat 2 (HR2) of SARS-CoV-2 spike.

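The starting antibody came from a phage panning campaign against this peptide. Designed CDR sequences, proposed from the first random library and measured here. Their group label is 14H_GP_Gen (GP: Gaussian process model; Gen: genetic algorithm; a sequence that several methods proposed may carry one label only). Affinity was read by AlphaSeq, a pooled yeast mating assay with surface-displayed partners. After mating in shaken culture at 30 °C for 16 h, diploids were selected and their barcode pairs sequenced. Each replicate has its own calibration line, from reference interactions of the BCL2 family. Each pool was mated in six replicate cultures.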

Ab-14 is the parent antibody, in scFv form: VH, then a 15-residue (Gly4Ser)3 linker, then VL. The light chain is unchanged in all variants.
VH: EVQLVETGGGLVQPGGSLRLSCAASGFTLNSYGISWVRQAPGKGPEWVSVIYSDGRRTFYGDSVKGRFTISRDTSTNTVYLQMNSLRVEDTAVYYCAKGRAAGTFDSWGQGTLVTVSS
VL: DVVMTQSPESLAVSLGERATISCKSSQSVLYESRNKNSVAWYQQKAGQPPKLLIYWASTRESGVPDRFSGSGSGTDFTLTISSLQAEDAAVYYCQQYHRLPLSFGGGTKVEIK

Positions count from residue 1 of the parent VH; T28D puts D in place of T.
Affinities are written as log10 Kd with Kd in nM; a lower number is a better binder.
An entry "ND" has no value in the source: the pair was not observed among the diploids in that replicate. This suggests poor binding but is not conclusive.
The parent sequence was in this pool as ten entries: three were never detected, three once, and four in most replicates, with averages from 0.34 to 2.37.

| # | changes | log10 Kd (nM) by replicate | empty controls |
|---|---|---|---|
| 1 | T28D+R100N+S107D | 0.84 1.75 0.93 1.74 2.02 1.14 | 0/18 |
| 2 | G26H+T28D+G61I+A101T | ND 1.86 ND ND 1.30 3.26 | 1/18 (0.60) |
| 3 | T28E+G61A+A101T+S107K | 1.12 1.68 1.21 1.51 2.27 2.49 | 0/18 |
| 4 | T28W+S31E+A101T+S107C | 1.05 0.88 0.18 1.07 1.02 2.19 | 0/18 |
| 5 | T28E+S53A+R100K+S107C | 0.49 ND 1.09 0.69 1.69 1.27 | 0/18 |
| 6 | T28Q+S31E+R100E+S107T | 0.37 0.85 0.79 0.14 0.19 0.87 | 0/18 |
| 7 | T28S+S31E+G61H+S107T | 0.65 0.71 0.04 0.42 0.03 0.17 | 0/18 |
| 8 | T28S+S63Q+A101I | 0.82 1.62 1.56 1.05 1.32 1.50 | 0/18 |
| 9 | S31E+S63R+A101T+S107T | 0.03 0.20 0.25 0.59 0.01 0.25 | 1/18 (1.75) |
| 10 | T28S+R100K+A101V+S107T | 0.26 0.45 0.39 -0.20 -0.12 -0.12 | 1/18 (1.36) |
| 11 | T28D+R100E+S107E | 0.33 0.13 0.90 0.69 0.31 0.57 | 0/18 |
| 12 | G26L+T28D+F59A | 2.32 2.47 2.06 1.11 ND 1.50 | 0/18 |
| 13 | T28D+A101K | 1.72 ND ND 1.21 2.12 1.84 | 0/18 |
| 14 | T28D+G61A+S63A+R100K+A101T | 0.38 0.34 1.12 0.71 0.59 0.45 | 0/18 |
| 15 | T28D+G61K+S63Q+A101T | 1.13 0.65 0.32 0.61 0.21 0.88 | 0/18 |
| 16 | T28D+S63D+R100Q | 0.49 0.57 1.44 0.74 -0.49 -0.09 | 0/18 |
| 17 | T28D+S63D+R100E | 0.48 0.63 -0.09 0.17 -0.37 0.44 | 0/18 |
| 18 | T28S+S63Q+A101Q | 0.11 -0.02 1.40 0.32 0.21 0.63 | 0/18 |
| 19 | T28H+R100Q+A101E | ND ND ND ND ND ND | 1/18 (1.71) |
| 20 | T28D+G61K+R100K+A101E | -0.10 -0.29 -0.32 -0.54 -0.17 -0.21 | 0/18 |
| 21 | T28E+S31E+G61I+A101Q | 0.80 0.37 0.81 0.39 0.47 0.20 | 0/18 |
| 22 | T28Q+S31E+R100W+A101T | ND 0.81 ND 1.07 0.31 1.27 | 0/18 |
| 23 | T28S+G61Q+S63N+A101T | 0.87 0.19 0.68 0.49 0.09 0.49 | 0/18 |
| 24 | N30E+G61Q+R100Q | ND ND ND 0.03 -0.37 ND | 0/18 |
| 25 | G26E+S53A+A101T | 0.00 -0.74 -0.43 -0.70 -0.52 -0.29 | 0/18 |
| 26 | T28D+R56Q+R100Q+A101T | ND ND ND ND ND ND | 0/18 |
| 27 | T28S+S31E+S63Q | 0.29 0.65 1.15 0.12 0.31 0.16 | 1/18 (2.05) |
| 28 | G26K+T28E+S31N+A101T | 2.62 ND 1.59 2.45 3.06 ND | 0/18 |
| 29 | T28S+S63H+R100K+A101T | 1.04 -0.23 -0.01 0.01 0.96 0.82 | 0/18 |
| 30 | T28D+S63Q+R100K+A101N | 0.29 0.28 0.05 0.09 0.23 0.00 | 2/18 (3.05) |

For reference, 2 entries of the list once more:

| changes | log10 Kd (nM) by replicate | empty controls |
|---|---|---|
| T28D+S63D+R100Q | 0.49 0.57 1.44 0.74 -0.49 -0.09 | 0/18 |
| T28D+R100N+S107D | 0.84 1.75 0.93 1.74 2.02 1.14 | 0/18 |

The authors averaged sequences with at least three values out of six and counted those with two or fewer as poor binders.
Values of this round are not directly comparable with the first-round values of the same sequences.
Background: pairings of all heavy chain designs with three empty control strains gave a value in 1% of cases (median 2.08, 5th percentile 0.84). Values in that range, when seen in few replicates, are hard to tell from nonspecific mating. The control count says in how many pairings with the empty strains this scFv gave a signal, with their mean in brackets.